We go through five compounds from patent publication US20250346584A1, “NOVEL KAPPA OPIOID LIGANDS” (The Scripps Research Institute, priority 2012, published 2025).

Chains of the proteins cited; added tags and fusions are not shown.
UniProt P41145, whole entry: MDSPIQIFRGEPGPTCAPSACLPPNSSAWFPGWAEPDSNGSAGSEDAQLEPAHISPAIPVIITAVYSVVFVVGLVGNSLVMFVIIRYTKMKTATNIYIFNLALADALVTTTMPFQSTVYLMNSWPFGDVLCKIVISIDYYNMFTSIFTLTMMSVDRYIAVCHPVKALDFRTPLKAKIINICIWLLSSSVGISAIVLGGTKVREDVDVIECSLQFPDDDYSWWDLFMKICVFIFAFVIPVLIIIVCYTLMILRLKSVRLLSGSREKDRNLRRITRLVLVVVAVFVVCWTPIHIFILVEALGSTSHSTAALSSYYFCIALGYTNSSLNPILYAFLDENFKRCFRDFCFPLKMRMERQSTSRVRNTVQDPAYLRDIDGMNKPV

The experiment addresses kappa opioid receptor (OPRK1) (Homo sapiens (Human), UniProt P41145). Conditions: read-out: IC50 nM (% inhib if other than 50%); antagonist mode vs EC80 U-50488; NA = not active at concentrations up to 10 μM.

`CON=Cc1cc(Br)cnc1N1CCC(NC2CCCCC2)C(O)C1` (centres unmarked): the IC50 worked out at 31 nM.
The figure for `CCON=Cc1cc(Br)cnc1N1CCC(NC2CCCCC2)C(O)C1` (centres unmarked) is 41 nM; for `CON=Cc1cc(Br)cnc1N1CC[C@@H](NC2CCCCC2)[C@H](O)C1` it is 206 nM; for `CCON=Cc1cc(Br)cnc1N1CC[C@@H](NC2CCCCC2)[C@H](CO)C1` (relative stereo) it is 45 nM.
The figure for `CON=Cc1cc(C)cnc1N1CC[C@@H](NC2CCCCC2)[C@@H](OC)C1` (relative stereo) is 101 nM.

One may read the IC50 as the midpoint of a concentration-inhibition curve.
